Results on 1 compound are retold here after PubChem BioAssay AID720513 (Broad Institute, 2013).

Only a part is listed here, and it is no random draw. Measured potencies and affinities stand elsewhere. Records with an inconclusive call do not appear. The source made the active and inactive calls.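 How the source made its calls: active means fitted curve reaches 40% activation at or below the top valid concentration, in every replicate test; inconclusive means replicate tests disagree on the call; inactive means the rest, including activity in the opposite direction.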

The assay can be described thus: PGC1a acetylation increase, cellular AlphaLISA – cell-based, cherry-picked samples, set 6, dose response (AID 720513).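 Further: cells made to overexpress flag tagged PGC1a plus GCN5 acetyltransferase by viral infection.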 The following applies: U2OS PGC1a acetylation AlphaLISA, overnight, 0 = neutral, -100 = inhibitor control; at 19.5 µM (top of the series). Background: Alpha assays give light when donor and acceptor beads are brought close together.
Take `CN(C)C(=O)Oc1noc2ccccc12`: the activation (acetylation increase) was inactive: 12.1%.
